Reference: PubChem BioAssay AID697 (Columbia University Molecular Screening Center, 2007)
The list shows a part of the results, in another mix than the full data. Activity calls are given as the source filed them.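 How the source made its calls: active means activation at 2 µM above a set limit, the mean plus 5 SD (cut at about 37% in these data); inactive means the rest.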

Chains of the proteins cited; added tags and fusions are not shown.
UniProt Q9Y2R2, whole entry, looked up: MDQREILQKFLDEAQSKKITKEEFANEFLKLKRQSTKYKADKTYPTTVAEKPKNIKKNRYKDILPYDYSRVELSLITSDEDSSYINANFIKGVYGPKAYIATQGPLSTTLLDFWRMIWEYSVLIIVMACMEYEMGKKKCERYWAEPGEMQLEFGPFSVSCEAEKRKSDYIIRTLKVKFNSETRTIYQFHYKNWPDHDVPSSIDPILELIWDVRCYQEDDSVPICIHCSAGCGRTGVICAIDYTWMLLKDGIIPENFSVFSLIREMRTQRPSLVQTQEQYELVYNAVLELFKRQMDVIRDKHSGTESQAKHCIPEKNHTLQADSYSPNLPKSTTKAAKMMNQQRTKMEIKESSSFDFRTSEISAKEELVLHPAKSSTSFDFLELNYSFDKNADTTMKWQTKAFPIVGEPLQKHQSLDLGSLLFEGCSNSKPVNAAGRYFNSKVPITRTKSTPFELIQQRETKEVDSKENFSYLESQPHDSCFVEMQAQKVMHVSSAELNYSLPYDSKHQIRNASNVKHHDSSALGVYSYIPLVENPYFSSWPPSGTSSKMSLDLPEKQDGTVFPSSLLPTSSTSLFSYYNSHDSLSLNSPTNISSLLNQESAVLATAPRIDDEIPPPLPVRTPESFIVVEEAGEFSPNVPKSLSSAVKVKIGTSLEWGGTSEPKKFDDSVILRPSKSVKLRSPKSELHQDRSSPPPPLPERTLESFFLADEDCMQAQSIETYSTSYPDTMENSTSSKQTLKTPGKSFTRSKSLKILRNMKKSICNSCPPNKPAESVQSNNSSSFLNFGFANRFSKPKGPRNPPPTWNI

The compounds below were run against Tyrosine-protein phosphatase non-receptor type 22 (Homo sapiens) (UniProt Q9Y2R2) (assay: enhancers of human PTPN22 catalytic activity – biochemical, DiFMUP fluorescence, 2 µM, primary screen (AID 697)). Settings: recombinant LYP, at 2 µM, hits give high values, 0 = plate median, 100 = signal doubled.

Row | Structure (SMILES) | activation
1 | CCOP1(=S)c2c(C)nn(CCC#N)c2N=C(c2ccccc2F)N1C (stereo not drawn) | inactive: -5.9%
2 | CCOP1(=S)c2c(C)nn(CCC#N)c2N=C(c2ccc(F)cc2)N1C (stereo not drawn) | inactive: -7%
3 | O=[N+]([O-])c1ccc2c(c1)nnn2O | inactive: 2.2%
4 | Cc1cccc(OCC(=O)OC2CN3CCC2CC3)c1 (stereo not drawn) | inactive: 3.9%
5 | O=P1(Nc2ccccn2)COc2ccccc2OC1 | inactive: 1.3%
6 | Clc1n[nH]nc1-c1nn[nH][15n]1 | inactive: -2%
7 | CC1(CBr)Cn2c(nc3ccccc3c2=O)S1 (stereo not drawn) | inactive: 3.6%
8 | Cc1nn(-c2ccccc2)c2c1P(=O)(N1CCOCC1)N(C)C(c1ccccc1)=N2 (stereo not drawn) | inactive: 5.2%
9 | O=P1(Nc2ncccn2)COc2ccccc2OC1 | inactive: -8.6%
10 | Cc1ccc(OCC(=O)OC2CN3CCC2CC3)cc1 (stereo not drawn) | inactive: 7.3%
11 | O=P1(Nc2ccc(Br)cn2)COc2ccccc2OC1 | inactive: 5.6%
12 | COP1(=S)c2c(C)nn(CCC#N)c2N=C(c2ccc(F)cc2)N1C (stereo not drawn) | inactive: 1.4%
13 | O=C(COc1ccccc1)OC1CN2CCC1CC2 (stereo not drawn) | inactive: -3.1%
14 | CCC(C)N(CC(C)C)C(=S)SC(NC(C)=O)C(Cl)(Cl)Cl (stereo not drawn) | inactive: 1%
15 | O=C(OC1CN2CCC1CC2)C12CC3CC(CC(C3)C1)C2 (stereo not drawn) | inactive: -10.7%
16 | ClCCSc1nnc(-c2cccnc2)o1 | inactive: 2%
17 | CCN(CC)C(=S)SC(NC=O)C(Cl)(Cl)Cl (stereo not drawn) | inactive: 4.7%

Row | Structure (SMILES) | activation
18 | CCOP(=O)(Nc1ccccc1)OCC | inactive: -3.9%
19 | CN1CCCC(OC(=O)C(c2ccccc2)c2ccccc2)C1 (stereo not drawn) | inactive: 8.6%
20 | Oc1ccccc1CNc1ccccn1 | inactive: -12.3%
21 | Cc1c2non([O-])c-2c(C)[n+](=O)[n+]1[O-] | inactive: 18%
22 | CC(C)CC(=O)NC(Sc1ccc(Cl)cc1)C(Cl)(Cl)Cl (stereo not drawn) | inactive: 6.7%
23 | CCc1nc2c(n1)c1c(non1O)c1c2no[n+]1[O-] | inactive: 8%
24 | O=[N+]([O-])c1cccc2n[nH]nc12 | inactive: 4.1%
25 | CC(=O)N1C2C3N(C(C)=O)C1C1N(C(C)=O)C(C(N1C(C)=O)N3C(C)=O)N2C(C)=O | inactive: -0.2%
26 | CC1CCN(C(=O)Oc2c(Cl)cc(Cl)c3cccnc23)CC1 | inactive: -3.5%
27 | O=C(OC1CN2CCC1CC2)c1cccc(Cl)c1 (stereo not drawn) | inactive: 9.1%
28 | O=P(Nc1nccs1)(c1ccccc1)c1ccccc1 | inactive: 3.3%
29 | c1nnnn1CCn1cnnn1 | inactive: 8.6%
30 | O=P1(Nc2nc3ccc(Cl)cc3s2)COc2ccccc2O1 (stereo not drawn) | inactive: 9.3%
31 | CCOC(=O)NC(Sc1ccccc1)C(Cl)(Cl)Cl (stereo not drawn) | inactive: -5.8%
32 | CCC(=O)N1C2C3N(C(=O)CC)C1C1N(C(=O)CC)C(C(N1C(=O)CC)N3C(=O)CC)N2C(=O)CC | inactive: 14.9%
33 | COC(=O)c1cc2c(s1)N=C(c1ccccc1)N(C)P2(=O)N1CCOCC1 (stereo not drawn) | inactive: -2.1%
